# Apparent affinities of Ab-95 variants for a coronavirus HR2 peptide

All variants were tested on one target, the spike HR2 peptide PDVDLGDISGINAS (SARS-CoV-2).

Ab-95 is the parent antibody, in scFv form: VH, then a (GGGGS)3 linker, then VL. The heavy chain is unchanged in all variants.
VH: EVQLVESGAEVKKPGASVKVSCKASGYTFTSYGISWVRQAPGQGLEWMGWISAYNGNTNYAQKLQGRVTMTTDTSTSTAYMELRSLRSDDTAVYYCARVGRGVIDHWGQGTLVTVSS
VL: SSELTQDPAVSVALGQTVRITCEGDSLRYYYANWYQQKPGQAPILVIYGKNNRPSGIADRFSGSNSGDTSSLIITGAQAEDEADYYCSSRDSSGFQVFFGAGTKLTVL

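AAYL52 was designed without a model: most single CDR substitutions and a random sample of double and triple ones. In AlphaSeq, yeast of one mating type display the scFv and yeast of the other type display the target. After mating in shaken culture at 30 °C for 16 h, diploids were selected and their barcode pairs sequenced. Each replicate has its own calibration line, from reference interactions of the BCL2 family. Each pool was mated in three replicate cultures.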

The parent's light chain CDRs are EGDSLRYYYAN, GKNNRPS, SSRDSSGFQVF; each variant's own CDRs replace them letter for letter. Scale: log10 of Kd in nM, estimated from mating counts; low values are strong binders. The mean shown is taken over the replicates in which the pair was detected. "nd" marks a missing value. The strain was present, yet no cells mated with the target were sequenced in any replicate, which points to weak or no binding.

Result 3.26 (3 of 3 replicates), variant EDQSLRYYYAN, GKNNRPS, SSRGSSGFQVF.
Result nd (0 of 3 replicates), variant EGLSLRYYYAN, GECNRPS, SSRDSSGFQVF.
Result 3.40 (3 of 3 replicates), variant EGDSLRYYYAN, GKNNDYA, SSRDSSGFQVF.
Result 4.20 (1 of 3 replicates), variant EGDSLRYYYAN, GKNNHPS, SSRTGSGFQVF.
Result 2.55 (3 of 3 replicates), variant EGDSLRYYYAI, GKNSRPS, SSRDSSGFQVF.
Result 4.05 (2 of 3 replicates), variant EGQSLKYYYAN, GKNNRPS, SSRDSSGFQSF.
Result nd (0 of 3 replicates), variant EGDSERYYYAH, GKNNRPS, SSRDSSGKQVF.
Result nd (0 of 3 replicates), variant EGDSLRYYYAN, GKNYRPR, SSRDSSRFQVF.
Result 2.88 (3 of 3 replicates), variant EGDSLRYAYAN, GKNNLPS, YSRDSSGFQVF.
Result 3.53 (2 of 3 replicates), variant EGISLRYYYAN, GKNNRPS, ISRDSSGLQVF.
Result 5.02 (2 of 3 replicates), variant EGDSLRYYYAD, GKNNRGS, SSRDSSGFQPF.
Result 1.85 (3 of 3 replicates), variant EGDSLRYYYAN, IKNNRPS, SSRDSPGFQVF.
Result 1.89 (3 of 3 replicates), variant EGDSLRYRYAD, GKNNVPS, SSRDSSGFQVF.
Result 3.84 (3 of 3 replicates), variant EADSLRYYYVN, GKNNRPS, SSRDSSGFCVF.
Result 5.89 (1 of 3 replicates), variant EGDSLRYYYAN, GKNNRPS, SSRFSSGTRVF.
Result nd (0 of 3 replicates), variant EGDKLNYYYAN, GKNNRPS, SSRDSSGFLVF.
Result 3.92 (2 of 3 replicates), variant EGDSLRYYYAN, GKNNRPS, SQRDSRGWQVF.
Result 3.42 (3 of 3 replicates), variant EGDSLYYYYLN, GKNNRPS, SSRDESGFQVF.
Result 2.66 (3 of 3 replicates), variant EGDSLGTYYAN, GKNNRPS, SSRDSSGFMVF.
Result 5.11 (2 of 3 replicates), variant EGDSLYYEYAN, GKNNRPS, SSRMSSGFQVF.
Result 2.75 (3 of 3 replicates), variant EGDSLRYYYAN, GINNRPS, SSRDSSGQQVS.
Result 3.44 (1 of 3 replicates), variant EGDSLRTYYFN, GKCNRPS, SSRDSSGFQVF.
Result 2.66 (3 of 3 replicates), variant ETDSKRYYYAN, GKSNRPS, SSRDSSGFQVF.
Result 2.08 (3 of 3 replicates), variant EGDSLRYYYAN, GKNNRPS, SSRDSSGSTVF.
Result 3.50 (2 of 3 replicates), variant EVDSLRLYYAN, GKNPRPS, SSRDSSGFQVF.
Result 3.88 (1 of 3 replicates), variant EGDSWRYYYAN, GKNRRPS, SSRDSSGFAVF.
Result 2.20 (3 of 3 replicates), variant EGDSLRYYMAN, GKNNRPS, SSRDCAGFQVF.
Result nd (0 of 3 replicates), variant EGDSLRYYYAN, GKNNRPS, YSRDSVGFQFF.
Result 4.12 (2 of 3 replicates), variant EGDSLRYLYAN, GKNNRWS, SSRDSSGFEVF.
Result 4.67 (3 of 3 replicates), variant EGDSLRYVYAV, GPNNRPS, SSRDSSGFQVF.
Result 3.35 (3 of 3 replicates), variant EGDSLEYYYAN, GKDNRPS, SSRDSSGFQQF.
Result nd (0 of 3 replicates), variant EGDSLRYYYAN, GLNNHPS, SSRDSSGFQVI.
Result 1.57 (3 of 3 replicates), variant EGDSLRHYYAN, GQNNRPL, SSRDSSGFQVF.
Result 5.16 (2 of 3 replicates), variant EGDSLRYYYAN, GKHNRPS, SSRDSIGFQVF.
Result 3.44 (3 of 3 replicates), variant AWDSTRYYYAN, GKNNRPS, SSRDSSGFQVF.
Result nd (0 of 3 replicates), variant EIDSLRYYYAM, GKNNRPS, SHRDSSGFQVF.
Result 2.14 (3 of 3 replicates), variant EGDSLRYYYAN, GKNNRPS, SFRDSSGFSVF.
Result 3.21 (3 of 3 replicates), variant EGDSLRPYYQN, GKNNRPS, SSRDSDGFQVF.
Result 3.54 (2 of 3 replicates), variant EGDSLRQYYAN, GKNNDPS, SSRDSSGNQVF.

3 of these entries, quoted again:

CDR-L1,CDR-L2,CDR-L3,mean log10 Kd (nM),detected
EGDSLRYYYAN,GKNNDYA,SSRDSSGFQVF,3.40,3 of 3
EGDKLNYYYAN,GKNNRPS,SSRDSSGFLVF,nd,0 of 3
EGDSLRYLYAN,GKNNRWS,SSRDSSGFEVF,4.12,2 of 3

Nonspecific signal, from three strains lacking the peptide, appeared in 28% of pairings of library AAYL52, centred on 3.91 (5% of these signals below 2.90); values are not corrected for it.

Data: MIT Lincoln Laboratory AlphaSeq set, Engelhart et al. 2022, doi:10.1038/s41597-022-01779-4, as distributed in FLAb.